The results in this text go back to US4416899A, “Antibiotic BMG162-aF2, a process for production thereof, and antitumor drug containing said new antibiotic as active ingredient” (priority 1980, dated 1983).

SMILES strings stand for the structures.

The test deals with mouse leukemia L1210. The test can be described thus: Effect on mouse leukemia L1210 (ip-ip system). The conditions noted are these: hydrochloride.

Take `N=C(N)NCCCCC(O)CC(=O)NC(O)C(=O)NCCCCNCCCN` (stereo not shown) [BMG162-aF2]: the “effect on mouse leukemia L1210” value is “a curative effect and an effect of elongation of survival period”.
